Assay results taken from publication PMC3673982 (PLoS ONE, 2013).

Biological target: the molecule itself
Assay: cross-linking; 35 µM protein in 50 mM phosphate pH 7.4, 150 mM NaCl, preincubated at 37°C for 30 min; BS2G d0/d4 at 20-fold molar excess (50- and 100-fold also tested), 1 h on ice, quenched with Tris; read by 4-20% SDS-PAGE with Coomassie stain

B1: Human recombinant αA-WT crystallin (natural protein, UniProt P02489 1-173, looked up)
chain: MDVTIQHPWFKRTLGPFYPSRLFDQFFGEGLFEYDLLPFLSSTISPYYRQSLFRTVLDSGISEVRSDRDKFVIFLDVKHFSPEDLTVKVQDDFVEIHGKHNERQDDHGYISREFHRRYRLPSNVDQSALSCSLSADGMLTFCGPKIQTGLDATHAERAIPVSREEKPTSAPSS
notes: alpha-A-crystallin, human, wild type; Polydisperse oligomer with a variable number of subunits; also called wild-type αA-crystallin; source: E. coli BL21(DE3) pLysS, purified from the supernatant (gel filtration Superdex G-200, Q-Sepharose anion exchange)
binding result: binds
